# Binding of CDR-mutated scFvs to a peptide of the spike HR2 region

The target is the same throughout: PDVDLGDISGINAS, from the HR2 region of SARS-CoV-2 spike.

Parent: Ab-14, a human scFv built as VH, the linker GGGGSGGGGSGGGGS, VL. Only the CDRs of the heavy chain vary.
VH: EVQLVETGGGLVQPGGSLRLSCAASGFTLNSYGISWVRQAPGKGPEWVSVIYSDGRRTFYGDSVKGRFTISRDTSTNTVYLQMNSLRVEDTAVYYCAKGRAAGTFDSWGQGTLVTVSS
VL: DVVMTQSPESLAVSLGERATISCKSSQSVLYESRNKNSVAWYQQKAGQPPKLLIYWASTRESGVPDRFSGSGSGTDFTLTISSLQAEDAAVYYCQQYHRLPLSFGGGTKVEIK

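The parent was found by panning a naive human phage display library on the peptide. These sequences belong to a second round, designed from the earlier measurements on random variants of the parent. Group labels follow the data file (Ctrl: baseline library sampled from a position-specific scoring matrix, with some repeated check sequences; Rand: our label for a block that the file lists under HC and that is probably the random mutants of the ten best first-round binders; En: ensemble of fine-tuned language models; GP: Gaussian process model; GPLM: also part of the Gaussian process libraries; HC: hill climbing; Gen: genetic algorithm; Gibbs: Gibbs sampling; a sequence that several methods proposed may carry one label only). AlphaSeq pools MATa yeast showing the antibodies with MATalpha yeast showing the peptide. Binding brings cells together so that they mate, and sequencing counts the barcode pairs among the diploids. A regression on co-assayed BCL2-family reference pairs converts the normalised counts of each replicate to an apparent Kd. There are six technical replicates.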

Each variant's VH is given in full. The Kd shown is the geometric mean over detected replicates; a lower Kd is a better binder. Where no diploid with the target was found in any replicate, the entry reads "nd": below detection, most likely a poor binder, though not proof of it. Entries are sorted by rising average, undetected variants last. A sequence measured in both rounds can read differently, since the two assays cover different ranges. The authors' rule: three or more of the six replicates give a measured affinity, fewer mean a poor binder. Of ten entries with the parent sequence, four were seen in most replicates (averages 2.2 nM to 240 nM), three in one and three in none, so single entries are noisy. Background: pairings of all heavy chain designs with three empty control strains gave a value in 1% of cases (median 120 nM, 5th percentile 7.0 nM). Values in that range, when seen in few replicates, are hard to tell from nonspecific mating. Some sequences occur more than once in the pool; their replicates are pooled.

Kd,replicates with signal,VH,group
150 pM,6 of 6,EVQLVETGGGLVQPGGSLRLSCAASGFDLNEYGISWVRQAPGKGPEWVSVIYADGSRKAYADSVKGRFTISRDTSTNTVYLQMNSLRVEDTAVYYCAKGNVAGTFDTWGQGTLVTVSS,En_Gen
180 pM,1 of 6,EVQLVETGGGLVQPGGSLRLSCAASGFDLNEYGISWVRQAPGKGPEWVSVIYADGMRTAYTDKVKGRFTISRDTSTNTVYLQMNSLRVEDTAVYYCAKGNVAGTFDVWGQGTLVTVSS,En_Gen
220 pM,6 of 6,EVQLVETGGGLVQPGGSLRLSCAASGFDINEYGISWVRQAPGKGPEWVSVIYADGQRTFYADSVKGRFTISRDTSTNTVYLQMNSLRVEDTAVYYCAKGNQAGTFDLWGQGTLVTVSS,En_HC
240 pM,6 of 6,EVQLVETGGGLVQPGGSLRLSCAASGFDLNEYGISWVRQAPGKGPEWVSVIYADGMRTAYSDSVKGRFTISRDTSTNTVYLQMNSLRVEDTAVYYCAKGTVAGTFDLWGQGTLVTVSS,En_Gen
390 pM,6 of 6,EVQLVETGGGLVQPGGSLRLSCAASGFDLNEYGISWVRQAPGKGPEWVSVIYADGRRTAYADNVKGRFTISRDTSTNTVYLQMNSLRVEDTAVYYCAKGQVAGTFDVWGQGTLVTVSS,En_Gen
400 pM,6 of 6,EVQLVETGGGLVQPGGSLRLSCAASGFDLNEYGISWVRQAPGKGPEWVSVIYADGRRTFYADSVKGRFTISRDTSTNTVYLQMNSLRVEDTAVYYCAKGETAGTFFSWGQGTLVTVSS,En_HC
640 pM,6 of 6,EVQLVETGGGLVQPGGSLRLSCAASGFSLNEYGISWVRQAPGKGPEWVSVIYSDGMRTFYGDSVKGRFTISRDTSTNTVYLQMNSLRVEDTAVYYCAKGRTAGTFDSWGQGTLVTVSS,GP_Gen
660 pM,6 of 6,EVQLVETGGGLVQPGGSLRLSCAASGFDLDEYGISWVRQAPGKGPEWVSVIYADGKRTAYSDSVKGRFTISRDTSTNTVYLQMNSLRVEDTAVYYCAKGEVAGTFDQWGQGTLVTVSS,En_Gen
810 pM,6 of 6,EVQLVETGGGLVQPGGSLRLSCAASGFNLNSYGISWVRQAPGKGPEWVSVIYSDGRRTFYADSVKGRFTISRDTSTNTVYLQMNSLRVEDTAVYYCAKGKQAGTFDSWGQGTLVTVSS,GPLM_Gibbs
1.5 nM,6 of 6,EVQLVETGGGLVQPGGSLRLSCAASGFDLGEFGISWVRQAPGKGPEWVSVIYADGMRTAYSDAVKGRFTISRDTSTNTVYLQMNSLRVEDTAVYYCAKGTFSGTVDVWGQGTLVTVSS,En_Gibbs
4.3 nM,6 of 6,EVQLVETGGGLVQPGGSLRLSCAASGFTLNDYGISWVRQAPGKGPEWVSVIYSDGRRTFYGDSVKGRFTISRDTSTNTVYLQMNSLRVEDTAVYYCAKGRAAGTFDCWGQGTLVTVSS,Ctrl
4.3 nM,12 of 12,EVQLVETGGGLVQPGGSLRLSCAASGFQLNDYGISWVRQAPGKGPEWVSVIYSDGRRTFYGDSVKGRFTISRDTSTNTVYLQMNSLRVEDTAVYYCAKGRAAGTFDSWGQGTLVTVSS,Ctrl+GPLM_HC
5.9 nM,6 of 6,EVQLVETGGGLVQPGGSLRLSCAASGFGLNEYGISWVRQAPGKGPEWVSVIYSDGRRTYYGDSVKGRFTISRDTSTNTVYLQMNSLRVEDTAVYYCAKGRTAGTFDSWGQGTLVTVSS,GP_Gibbs
17 nM,6 of 6,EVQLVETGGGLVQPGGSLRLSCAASGFTLNSYGISWVRQAPGKGPEWVSVIYADGWRTFYEDSVKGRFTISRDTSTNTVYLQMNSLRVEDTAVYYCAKGRAAGTFDSWGQGTLVTVSS,Ctrl
21 nM,1 of 6,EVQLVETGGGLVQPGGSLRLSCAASGFELNDYGISWVRQAPGKGPEWVSVIYSDGRRTWYIDSVKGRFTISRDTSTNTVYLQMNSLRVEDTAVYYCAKGRAAGTFDSWGQGTLVTVSS,GP_HC
36 nM,6 of 6,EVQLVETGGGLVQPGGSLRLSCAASGFDLNSYGISWVRQAPGKGPEWVSVIYSDGRRTFYGDQVKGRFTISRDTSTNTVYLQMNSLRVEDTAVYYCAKGKEAGTFDSWGQGTLVTVSS,GP_Gen
120 nM,2 of 6,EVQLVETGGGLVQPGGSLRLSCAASGFTLDSYGISWVRQAPGKGPEWVSVIYSDGRRTFIGDSVKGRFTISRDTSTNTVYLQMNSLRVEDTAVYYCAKGRAAGTALSWGQGTLVTVSS,Rand
nd,0 of 6,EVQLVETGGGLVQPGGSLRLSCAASGFTLNEYGISWVRQAPGKGPEWVSVIYSDGRRTFYSDAVKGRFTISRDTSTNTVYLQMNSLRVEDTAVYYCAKGKCAGTFDSWGQGTLVTVSS,GP_HC
nd,0 of 6,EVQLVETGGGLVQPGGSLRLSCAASGFTLNDYGISWVRQAPGKGPEWVSVIYSDGRRTFYGDSVKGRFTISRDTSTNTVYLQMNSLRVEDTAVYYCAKGRAALTFDVWGQGTLVTVSS,GPLM_HC
nd,0 of 6,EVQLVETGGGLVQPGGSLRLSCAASGFTLNEYGISWVRQAPGKGPEWVSVIYSDGRRTFYGDSVKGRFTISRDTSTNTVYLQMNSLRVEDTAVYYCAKGRAAVTFVLWGQGTLVTVSS,GP_HC
nd,0 of 6,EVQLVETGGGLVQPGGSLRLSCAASGETPDEYGISWVRQAPGKGPEWVSVIYSDGRRTFYGDSVKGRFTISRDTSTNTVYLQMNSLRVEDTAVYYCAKGRAAGTFDSWGQGTLVTVSS,Ctrl
nd,0 of 6,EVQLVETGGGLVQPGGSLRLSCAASGFNLLEYGISWVRQAPGKGPEWVSVIYADGKRTMYTNTVKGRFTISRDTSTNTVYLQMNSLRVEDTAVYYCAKGMINDGVMAWGQGTLVTVSS,En_Gibbs
nd,0 of 6,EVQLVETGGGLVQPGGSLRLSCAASGFSLNEYGISWVRQAPGKGPEWVSVIYSDGRRTFYGDSVKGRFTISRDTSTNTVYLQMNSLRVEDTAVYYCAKGRAAVTFDDWGQGTLVTVSS,GPLM_HC
nd,0 of 6,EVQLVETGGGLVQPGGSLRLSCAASGFDLNEYGISWVRQAPGKGPEWVSVIYADGRRTAYADDVKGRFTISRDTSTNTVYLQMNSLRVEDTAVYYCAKGTNAGTFDIWGQGTLVTVSS,En_Gen
nd,0 of 6,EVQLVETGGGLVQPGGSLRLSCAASGFTLNSYGISWVRQAPGKGPEWVSVIYSDGRRTFMEDSVKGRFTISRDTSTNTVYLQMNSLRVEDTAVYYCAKGKAMGTFDSWGQGTLVTVSS,Ctrl
nd,0 of 6,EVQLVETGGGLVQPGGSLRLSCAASGFTLNSYGIHWVRQAPGKGPEWVSVIYSDGRRTFYGDSVKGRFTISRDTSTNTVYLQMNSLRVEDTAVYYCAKGQNAGNFDVWGQGTLVTVSS,Ctrl

Again, the first 2 entries without any signal:

VH	group	Kd	replicates with signal
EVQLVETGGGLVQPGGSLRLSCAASGFTLNEYGISWVRQAPGKGPEWVSVIYSDGRRTFYSDAVKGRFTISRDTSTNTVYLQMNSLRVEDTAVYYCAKGKCAGTFDSWGQGTLVTVSS	GP_HC	nd	0 of 6
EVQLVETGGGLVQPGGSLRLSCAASGFTLNDYGISWVRQAPGKGPEWVSVIYSDGRRTFYGDSVKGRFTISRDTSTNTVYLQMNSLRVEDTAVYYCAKGRAALTFDVWGQGTLVTVSS	GPLM_HC	nd	0 of 6

Data: MIT Lincoln Laboratory AlphaSeq set, Li et al. 2023, doi:10.1038/s41467-023-39022-2, as distributed in FLAb.